Results reported in patent US20250171423A1, “PHARMACEUTICAL COMPOUNDS FOR THE TREATMENT OF COMPLEMENT MEDIATED DISORDERS” (Achillion Pharmaceuticals, Inc., priority 2020, published 2025).

Amino acid sequences for entries named in this document (tags omitted). Residues count along the entry.
UniProt P09871, 438-688 limits assumed: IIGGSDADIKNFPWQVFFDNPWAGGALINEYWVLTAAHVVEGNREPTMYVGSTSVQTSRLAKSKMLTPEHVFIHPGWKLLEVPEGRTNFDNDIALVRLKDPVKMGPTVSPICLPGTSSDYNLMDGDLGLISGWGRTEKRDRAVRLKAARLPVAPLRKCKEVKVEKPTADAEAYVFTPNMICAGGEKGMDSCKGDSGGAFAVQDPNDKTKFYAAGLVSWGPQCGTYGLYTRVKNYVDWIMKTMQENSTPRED
UniProt P09871, 16-437 partner limits assumed: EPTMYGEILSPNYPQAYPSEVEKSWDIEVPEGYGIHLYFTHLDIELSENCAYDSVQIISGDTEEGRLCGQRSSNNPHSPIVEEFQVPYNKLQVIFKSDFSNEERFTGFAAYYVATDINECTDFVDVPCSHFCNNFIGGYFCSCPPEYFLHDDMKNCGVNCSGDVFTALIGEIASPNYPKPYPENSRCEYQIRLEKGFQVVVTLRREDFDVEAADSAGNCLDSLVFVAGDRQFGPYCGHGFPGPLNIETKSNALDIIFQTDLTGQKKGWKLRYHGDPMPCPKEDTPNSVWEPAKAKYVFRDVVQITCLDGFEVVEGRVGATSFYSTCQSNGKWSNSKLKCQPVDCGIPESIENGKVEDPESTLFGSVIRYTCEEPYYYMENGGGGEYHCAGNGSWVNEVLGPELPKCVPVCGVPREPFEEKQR

Target: Human complement C1s enzyme (Homo sapiens, UniProt P09871)
Assay: Human C1s Enzyme Assay
Format: biochemical
Conditions: read-out: C1s Protease Activity; human C1s 1.16 nM, 5 min preincubation, substrate Z-L-Lys-SBzl 100 μM, A405
Protocol: The assay of Example 3 was used to determine the IC50's of the compounds. Other standard complement assays are also available.
Example 3. Human C1s Enzyme Assay
Human complement C1s enzyme (purified from human serum, Complement Technology, Inc.) at 1.16 nM final concentration was incubated with test compound at various concentrations for 5 min at room temperature in 50 mM Tris, 1 M NaCl, pH 7.5. A synthetic substrate Z-L-Lys-SBzl and DTNB (Ellman's reagent) were added to final concentrations of 100 μM each. Absorbance at 405 nm (A405) was recorded at 30 second intervals for 30 min using a microplate spectrophotometer. IC50 values were calculated by nonlinear regression of complement C1s reaction rates as a function of test compound concentration.

SMILES	IC50
C[C@@]12C[C@@H]1N(C(=O)CNC(=O)c1ccc(Oc3ccccc3)cc1)[C@H](C(=O)NCc1cc(C(=N)NC(N)=O)cs1)C2	< 100 nM
C[C@@]12C[C@@H]1N(C(=O)CNC(=O)c1ccc(Oc3ccccc3)cc1)[C@H](C(=O)NCc1cc(C(=N)NC#N)cs1)C2	> 1000 nM
C[C@@]12C[C@@H]1N(C(=O)CNC(=O)c1ccc(OCc3ccccc3)cc1)[C@H](C(=O)NCc1cc(C(=N)N)cs1)C2	< 100 nM
